Laboratory results published in patent EP2397477B1, “Heterocyclic-substituted piperidine compounds and the uses thereof” (dated 2008).

Chains of the proteins cited; added tags and fusions are not shown. Lines headed by an entry give the natural chain unless they say otherwise; changes in a name come on top.
UniProt P41146: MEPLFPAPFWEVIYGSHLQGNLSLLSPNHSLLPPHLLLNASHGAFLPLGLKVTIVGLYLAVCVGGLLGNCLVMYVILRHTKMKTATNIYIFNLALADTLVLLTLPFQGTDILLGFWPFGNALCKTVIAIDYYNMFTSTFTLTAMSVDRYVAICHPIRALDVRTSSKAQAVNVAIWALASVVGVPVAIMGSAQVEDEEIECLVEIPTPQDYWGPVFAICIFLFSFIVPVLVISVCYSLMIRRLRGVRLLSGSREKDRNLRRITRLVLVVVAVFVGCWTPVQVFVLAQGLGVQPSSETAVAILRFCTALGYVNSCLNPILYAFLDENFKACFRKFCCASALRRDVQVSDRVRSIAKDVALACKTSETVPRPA

Target: human opioid receptor-like receptor (ORL-1) (Homo sapiens, UniProt P41146)
Test: In vitro ORL-1 receptor binding assay ([3H]-nociceptin displacement)
Conditions: read-out: Ki [Average ± Std Deviation] (nM) ORL-1; membranes from recombinant HEK-293 cells; 0.1 nM [3H]-nociceptin

SMILES | Ki [nM]
O=C(C1=C(n2c(=O)c(=O)[nH]c3ccccc32)CCN(C2CCCCCCC2)C1)N1CCCCC1 | 1760
O=C(NCc1ccccc1)C1=C(n2c(=O)c(=O)[nH]c3ccccc32)CCN(C2CCCCCCC2)C1 | 1780
O=C(C1=C(n2c(=O)c(=O)[nH]c3ccccc32)CCN(C2CCCCCCC2)C1)N1CCOCC1 | 1960
